## Apparent affinities of Ab-91 variants for a coronavirus HR2 peptide

Data: MIT Lincoln Laboratory AlphaSeq set, Engelhart et al. 2022, doi:10.1038/s41597-022-01779-4, as distributed in FLAb.

Target: peptide PDVDLGDISGINAS, taken from heptad repeat 2 (HR2) of SARS-CoV-2 spike.

Parent scFv Ab-91: VL joined to VH by a 15-residue (Gly4Ser)3 linker. Changes lie in the heavy chain CDRs alone.
VL: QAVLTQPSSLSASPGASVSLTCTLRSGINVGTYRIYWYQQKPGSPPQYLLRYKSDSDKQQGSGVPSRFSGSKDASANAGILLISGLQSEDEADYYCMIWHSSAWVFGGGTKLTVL
VH: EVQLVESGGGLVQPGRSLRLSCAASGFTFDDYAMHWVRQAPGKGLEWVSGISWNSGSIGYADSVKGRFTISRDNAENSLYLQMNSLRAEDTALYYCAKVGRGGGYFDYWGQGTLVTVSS

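Phage display of a naive human antibody library on the peptide gave the parent. In library AAYL51, one, two or three CDR residues were substituted; doubles and triples were drawn at random. AlphaSeq pools MATa yeast showing the antibodies with MATalpha yeast showing the peptide. Binding brings cells together so that they mate, and sequencing counts the barcode pairs among the diploids. The ratio of observed to expected reads was calibrated, replicate by replicate, on BCL2-family standards whose Kd was known from biolayer interferometry. There are three technical replicates.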

Positions count from residue 1 of the parent VH; S57V puts V in place of S. This list gathers variants with a substitution at D62 (VH, numbered from residue 1). Kd is apparent (estimated from mating counts) and averaged on the log scale over replicates with a signal. Smaller is tighter. "nd" means that the variant was in the library but no mating with the target was seen in any replicate; the authors take this as a sign of poor binding, and no number exists. As a blank, each scFv also met three strains without target: over library AAYL51, 21% of these pairings were detected, typically at 34 µM and seldom below 1.8 µM.

The variant S57V D62A D107S gave 1.6 µM (3 of 3 replicates). For D30T D62V R101Q, the assay gave 1.1 µM (3 of 3 replicates). With I51A D62F the result was nd (0 of 3 replicates). The variant S57L D62Y gave 5.0 µM (2 of 3 replicates). With D31H D62W the result was nd (0 of 3 replicates). With F29I D30A D62W the result was nd (0 of 3 replicates). The variant D62N showed 33 nM (3 of 3 replicates).

The variant A61L D62P G104A gave 130 µM (3 of 3 replicates). For I58R D62P F106C, the assay gave nd (0 of 3 replicates). The variant D62R V64K showed nd (0 of 3 replicates). With Y32R M34W D62S the result was 52 µM (1 of 3 replicates). For T28G S55P D62V, the assay gave 110 µM (2 of 3 replicates). The variant F27H W53M D62Y gave nd (0 of 3 replicates). The variant Y32S S55Q D62F gave nd (0 of 3 replicates).

For A61H D62E F106M, the assay gave 5.0 µM (1 of 3 replicates). For D62I S63L R101N, the assay gave nd (0 of 3 replicates). For D31I W53L D62R, the assay gave 1.6 µM (3 of 3 replicates). The variant D62G R101M G103K gave 6.4 µM (1 of 3 replicates). With Y60N D62M G102C the result was 420 µM (2 of 3 replicates). For M34A I51C D62H, the assay gave 2.2 µM (1 of 3 replicates). For D31H D62T G102C, the assay gave 12 nM (3 of 3 replicates).

For W53H A61P D62G, the assay gave nd (0 of 3 replicates). With D62E G100D Y108K the result was 64 µM (2 of 3 replicates). The variant D30P A33K D62P gave 4.7 µM (1 of 3 replicates). The variant M34F D62M V64E gave 30 µM (1 of 3 replicates). For G56L D62N D107F, the assay gave nd (0 of 3 replicates). For F27I D62Y Y105D, the assay gave 210 µM (3 of 3 replicates). With D62M the result was 22 µM (1 of 3 replicates).

The variant N54F S57Q D62I showed 13 µM (2 of 3 replicates). The variant D31V D62E D107Q showed nd (0 of 3 replicates). The variant G26L D62F G103D gave nd (0 of 3 replicates). With G26I D62A V99E the result was nd (0 of 3 replicates). The variant D62P V64P G100Q gave nd (0 of 3 replicates). For D62C V99L R101G, the assay gave nd (0 of 3 replicates). With Y60G D62I G100K the result was nd (0 of 3 replicates).

The variant S55P D62A F106M gave 12 µM (3 of 3 replicates). The variant S52V D62I Y105D showed 99 µM (1 of 3 replicates). For G59M D62W G100Q, the assay gave 32 µM (1 of 3 replicates). With M34P D62I K65M the result was 210 nM (3 of 3 replicates). With G50Q D62G Y108T the result was 4.7 µM (1 of 3 replicates). For A33V D62W G103F, the assay gave nd (0 of 3 replicates). With D62V G102D the result was 52 µM (1 of 3 replicates).

The variant D62S V64E V99Y showed 13 µM (2 of 3 replicates).

4 of these entries, quoted again:

changes,Kd,replicates with signal
D31H D62T G102C,12 nM,3 of 3
S52V D62I Y105D,99 µM,1 of 3
A33V D62W G103F,nd,0 of 3
S57V D62A D107S,1.6 µM,3 of 3